The text below walks through data of paper PMC11532494 (Nature Communications, 2024).

Protein sequences, listed by entry. Tags and fused reporters are not part of them. Residues count along the entry.
UniProt A0A067XIQ6, 1-369: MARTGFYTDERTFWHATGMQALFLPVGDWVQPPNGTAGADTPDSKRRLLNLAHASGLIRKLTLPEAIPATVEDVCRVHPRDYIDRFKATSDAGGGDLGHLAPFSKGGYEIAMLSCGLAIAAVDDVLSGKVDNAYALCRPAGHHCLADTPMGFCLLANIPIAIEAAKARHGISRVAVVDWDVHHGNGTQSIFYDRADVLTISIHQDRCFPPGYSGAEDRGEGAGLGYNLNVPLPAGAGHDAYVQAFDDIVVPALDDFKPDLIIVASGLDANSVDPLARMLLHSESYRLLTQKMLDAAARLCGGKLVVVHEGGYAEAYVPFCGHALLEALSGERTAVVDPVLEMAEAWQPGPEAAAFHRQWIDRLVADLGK

This test deals with RwDmhA (1b) (Rhizorhabdus wittichii, UniProt A0A067XIQ6). Put plainly: biochemical. The note with it: inhibitor 10 µM, individual replicates.

As a reminder, the remaining activity is what remains of the control signal, in per cent. Low readings indicate a large loss of activity, high ones a small loss of activity. With `CC(/C=C/C(=O)NO)=C\[C@@H](C)C(=O)c1ccc(N(C)C)cc1` [TSA, trichostatin A], the remaining activity at 10 µM is 7.1%.
